Reference: article PMC2709242
pKd: −log10 of the molar value.

Target: Rap80 tUIM peptide (His6-tagged, fluorescently labeled) (human)
Test: fluorescence polarisation

pKd: 4.85
Substance: K48-linked tetraubiquitin (from UniProt P0CG48 1-76) (complex)
